{"source": "ChEMBL document CHEMBL1128680", "about": "“6-substituted 2,4-diamino-5-methylpyrido[2,3-d]pyrimidines as inhibitors of dihydrofolate reductases from Pneumocystis carinii and Toxoplasma gondii and as antitumor agents” (J Med Chem, 1995)", "test": "Ratio of the inhibitory concentrations against Toxoplasma gondii […] and Toxoplasma gondii DHFR.", "data": [{"compound": "COc1cc(NCc2cnc3nc(N)nc(N)c3c2C)cc(OC)c1OC", "values": [{"measurement": "Ratio", "result": 3110}]}]}
